Data reported in US9387211B2 (Cedars-Sinai Medical Center, priority 2010, dated 2016).

Key:
[1] = test system: stable EGFR AtT20 transfectants (EGFR-AtT20); assay: EGF induction of phospho-STAT3; type: cell-based, murine; details: gefitinib 0.01-10 μM
[2] = test system: EGFRWT tumors (EGFR-overexpressing AtT20 allografts); set-up: species or system mice; details: mouse, in vivo
[3] = test system: control AtT20 cells, devoid of EGFR (V transfectants); assay: In vivo control (V) AtT20 allografts in nude mice; details: oral gefitinib 100 mg/kg/day; mice injected with control AtT20 cells
[4] = test system: AtT20 cells stably expressing wild type EGFR (EGFRWT); assay: TUNEL assay (apoptosis); details: gefitinib 0.1-10 μM
[5] = test system: AtT20 cells stably expressing wild type EGFR (EGFRWT); assay: Western blotting of p53 and cleaved caspase3; details: gefitinib 0.1-10 μM, 48 hours
[6] = test system: AtT20 cells stably expressing wild type EGFR (EGFRWT); assay: Western blotting, EGF-induced phosphorylation of EGFR, ERK and Akt; details: gefitinib 0.01-10 μM 45 min prior to 5 nM EGF 10 min
[7] = test system: AtT20 cells stably expressing constitutively active EGFR (EGFRL858R); assay: as above; details: gefitinib 0.01-10 μM 45 min prior to 5 nM EGF 10 min
[8] = test system: AtT20 cells stably expressing empty vector (V); assay: as above; details: gefitinib 0.01-10 μM 45 min prior to 5 nM EGF 10 min

Question: Which results are given for `COc1cc2ncnc(Nc3ccc(F)c(Cl)c3)c2cc1OCCCN1CCOCC1` [gefitinib]?
Answer: EGF induction of phospho-STAT3 [1]: dose dependently attenuated; attenuation of serum corticosterone levels [2]: ~35%; fat accumulation [2]: attenuated; hyperglycemia [2]: attenuated; plasma glucose levels [2]: 351 ± 14 mg/dL; serum ACTH levels [2]: 378 ± 83 ng/mL; weight gain [2]: attenuated; body weight [3]: not altered; fat accumulation [3]: not altered; glucose levels [3]: not altered; serum corticosterone [3]: not altered; apoptosis (TUNEL staining) [4]: induced apoptosis; cleaved caspase3 levels [5]: elevated; p53 levels [5]: elevated; cleaved caspase3 levels ([5]; listed as Gefitinib): enhancing; EGF-induced phosphorylation of EGFR, ERK and Akt [6]: dose dependently suppressed; EGF-induced phosphorylation of EGFR, ERK and Akt [7]: dose dependently suppressed; EGF-induced phosphorylation of EGFR, ERK and Akt [8]: not in V transfectants
